Measured values as given in ChEMBL document CHEMBL3763121, “Synthesis, biological evaluation and structural analysis of novel peripherally active morphiceptin analogs” (Bioorg Med Chem, 2016).

Protein sequences, listed by entry. Tags and fused reporters are not part of them.
UniProt P35372, whole entry: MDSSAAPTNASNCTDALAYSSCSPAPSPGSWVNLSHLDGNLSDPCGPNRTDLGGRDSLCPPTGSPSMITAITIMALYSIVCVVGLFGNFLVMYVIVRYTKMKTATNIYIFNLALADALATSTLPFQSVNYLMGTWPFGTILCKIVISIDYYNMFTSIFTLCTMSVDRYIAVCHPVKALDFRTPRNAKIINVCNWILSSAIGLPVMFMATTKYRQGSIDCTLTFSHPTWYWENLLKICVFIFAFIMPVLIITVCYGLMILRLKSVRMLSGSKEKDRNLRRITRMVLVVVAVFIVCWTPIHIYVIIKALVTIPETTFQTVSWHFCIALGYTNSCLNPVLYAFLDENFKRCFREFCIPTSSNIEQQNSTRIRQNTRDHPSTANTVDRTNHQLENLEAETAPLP

Biological target: Mu-type opioid receptor (Homo sapiens, UniProt P35372)
Experiment: Agonist activity at human recombinant MOR expressed in CHO cells by calcium mobilization assay
Format: functional, cell-based

## C[C@@H](NC(=O)[C@@H](N)Cc1ccc(O)cc1)C(=O)N[C@@H](Cc1ccccc1)C(=O)NCC(=O)N[C@@H](Cc1ccc(O)cc1)C(=O)N1CCC[C@H]1C(=O)N[C@@H](CO)C(N)=O
  EC50: 3.98 nM
